In IntAct's records for PubMed 17317006:

B1: Glycogen synthase kinase-3 beta (Homo sapiens), P49841 (parent)
chain: MSGRPRTTSFAESCKPVQQPSAFGSMKVSRDKDGSKVTTVVATPGQGPDRPQEVSYTDTKVIGNGSFGVVYQAKLCDSGELVAIKKVLQDKRFKNRELQIMRKLDHCNIVRLRYFFYSSGEKKDEVYLNLVLDYVPETVYRVARHYSRAKQTLPVIYVKLYMYQLFRSLAYIHSFGICHRDIKPQNLLLDPDTAVLKLCDFGSAKQLVRGEPNVSYICSRYYRAPELIFGATDYTSSIDVWSAGCVLAELLLGQPIFPGDSGVDQLVEIIKVLGTPTREQIREMNPNYTEFKFPQIKAHPWTKVFRPRTPPEAIALCSRLLEYTPTARLTPLEACAHSFFDELRDPNVKLPNGRDTPALFNFTTQELSSNPPLATILIPPHARIQAAASTPTNATAASDANTGDRGQTNNAASASASNST

Variants of: B1
Details: with 1433z_human YWHAZ

| Variant | effect of a mutation on the interaction |
| --- | --- |
| S9A | disrupting interaction |
